{"sequences": {"note": "Amino acid sequences for entries named in this document (tags omitted). A change or cut given only in a name is not applied to a line headed by its entry. Residues count along the entry.", "UniProt Q9GZT9, 179-426": "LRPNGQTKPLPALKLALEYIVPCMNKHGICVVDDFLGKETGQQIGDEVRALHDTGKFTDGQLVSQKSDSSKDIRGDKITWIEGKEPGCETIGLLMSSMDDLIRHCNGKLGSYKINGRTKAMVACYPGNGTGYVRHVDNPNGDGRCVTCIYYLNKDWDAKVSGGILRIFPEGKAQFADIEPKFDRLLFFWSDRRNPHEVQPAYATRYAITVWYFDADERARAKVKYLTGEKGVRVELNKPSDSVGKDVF", "UniProt Q9H6Z9": "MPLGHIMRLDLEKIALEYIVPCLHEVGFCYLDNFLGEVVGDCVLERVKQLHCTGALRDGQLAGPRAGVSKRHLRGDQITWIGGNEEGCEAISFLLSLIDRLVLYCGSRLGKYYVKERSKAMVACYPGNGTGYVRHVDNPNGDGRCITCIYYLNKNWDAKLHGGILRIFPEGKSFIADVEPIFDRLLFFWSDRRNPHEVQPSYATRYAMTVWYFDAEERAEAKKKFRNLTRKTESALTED"}, "source": "patent US8598210B2", "about": "“Prolyl hydroxylase inhibitors and methods of use” (Akebia Therapeutics Inc., priority 2006, dated 2013)", "key": {"[1]": {"molecular_target": "Recombinant human EGLN-1-179/426 (Homo sapiens (Human), UniProt Q9GZT9)", "test": "EGLN-1 Activity Assay (MALDI-TOF MS)", "assay_type": "biochemical", "conditions": "read-out: EGLIN1 IC50", "protocol": "(§1) Hydroxylated peptide product is identified from substrate by the gain of 16 Da. Data defined as percent conversion of substrate to product is analyzed in GraphPad Prism 4 to calculate IC50 values."}, "[2]": {"molecular_target": "Full-length recombinant human EGLN-3 (His-MBP-TVMV-EGLN-3 fusion) (Homo sapiens (Human), UniProt Q9H6Z9)", "test": "EGLN-3 enzyme activity assay (MALDI-TOF MS)", "assay_type": "biochemical", "conditions": "read-out: EGLIN3 IC50", "protocol": "as §1"}}, "note": "Counter-ions that a name gives are not always drawn. Like-named read-outs stand apart in the source and are kept apart here.", "data": [{"smiles": "O=C(O)CNC(=O)c1ncc(-c2cccc(Cl)c2)cc1O", "note": "[{[5-(3-Chlorophenyl)-3-hydroxypyridine-2-carbonyl]amino}-acetic acid trifluoroacetic acid salt]", "values": [{"measurement": "IC50", "setting": "[1]; trifluoroacetic acid salt", "value": 0.41, "unit": "µM"}]}, {"smiles": "O=C(O)CNC(=O)c1ncc(-c2cccc(Cl)c2)cc1O", "note": "[{[5-(3-Chlorophenyl)-3-hydroxypyridine-2-carbonyl]amino}-acetic acid]", "values": [{"measurement": "IC50", "setting": "[2]", "value": 0.39, "unit": "µM"}, {"measurement": "IC50", "setting": "[1]", "value": 1.1, "unit": "µM"}]}]}
